Shown are actives, neighbours in structure and some others; about 2.1% of the full set was active somewhere.
Yeast UUG start-1 = modulators of start codon recognition fidelity in yeast; AID 602363; activity score, % at 18.7 µM; S. cerevisiae UUG-firefly luciferase reporter, luminescence/redox ratio; actives 0.13% (n = 350,000);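 active = replicate mean at a twofold rise or more, about +100% in these data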;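 note: firefly luciferase made from a UUG start codon reports start codon fidelity; reporter light over untreated wells divided by growth signal over untreated wells; some hits fall short of that in this replicate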
GSIS activator = primary screen for activators of insulin secretion dependent on glucose, INS-1E cells, GLuc reporter luminescence; AID 743287; activation, % at 16.6 µM; INS-1E GLuc reporter insulin secretion, 2-3 h; 370,000 compounds, 0.61% hits;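 active = lowest replicate activation of at least 40%, so every replicate reaches that level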;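 also: 0% = median of neutral control wells and 100% = median of IBMX positive control wells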
ERp5 block = blocks human ERp5 reductase activity on insulin; ERp5 insulin aggregation, absorbance 650 nm, 90 min; inhibition, % at 9.99 µM; 350,000 compounds, 0.05% hits;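 active = mean replicate inhibition above about 25%, with every replicate also reaching it, limit read from the data, passing the limit was not always enough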
PDI turbidity = inhibitors of human protein disulfide isomerase. P07237. PDI insulin aggregation turbidity, A650, 90 min. inhibition, % at 10 µM. 350,000 compounds, 0.052% hits;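 active = mean inhibition across replicates of 30% or more, whatever share of single replicates reach that level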
NR1D1 modulator = modulates human Rev-erb alpha binding to DNA; activity, % at 10 µM; Rev-erbα–FITC-DNA binding, fluorescence polarization, 90 min; 370,000 compounds, 0.79% hits;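 active = activity above about 14%, limit read from the data; passing the limit was not always enough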;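 also: 0% = DMSO wells with 35 nM protein and 100% = DMSO wells with 750 nM protein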
SMARCA2 act = increases SMARCA2 function in MMTV reporter cells; activation, % at 9.1 µM; 370,000 compounds, 1% hits; MG213 cells, MMTV-luciferase reporter, dexamethasone, overnight; in the data active = activation above about 7.8%;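 also: 0% = vehicle wells and 100% = reference activator wells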
Yeast UUG start-2 = alters UUG start codon use in yeast | shares compounds with Yeast UUG start-1 | S. cerevisiae UUG-start firefly luciferase, luminescence, 4 h; 100% means double the DMSO signal | activation, % at 38 µM | 540 tested, under 10 active;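 active = signal increase whose fitted curve reaches an absolute level of 40 at a concentration under 10 µM; inactive = activity opposite to the expected increase, or the rest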
Active calls of the source: *; i = inactive; . = not tested or not shown.

item	Yeast UUG start-1	GSIS activator	ERp5 block	PDI turbidity	NR1D1 modulator	canonical_smiles	SMARCA2 act	Yeast UUG start-2
1	12*	-9	6	.	.	Cc1noc(C)c1NC(=O)N(C)C[C@H]1Oc2ncc(C#CC3CCCCC3)cc2C(=O)N([C@H](C)CO)C[C@@H]1C	.	i
2	11	4	1	.	.	C[C@@H]1CN([C@H](C)CO)C(=O)c2cc(C#CC3CCCCC3)cnc2O[C@@H]1CN(C)Cc1cccnc1	.	.
3	-1	0	0	.	.	O=C(C[C@@H]1C[C@@H]2c3cc(NC(=O)C4CCOCC4)ccc3O[C@@H]2[C@H](CO)O1)NCCc1ccccc1	.	.
4	6	-5	-8	.	.	C[C@H](CO)N1C[C@H](C)[C@H](CN(C)C(=O)CCC(F)(F)F)OCCCC[C@H](C)Oc2ccc(NC(=O)Cc3ccccc3)cc2C1=O	.	.
5	12	.	-4	.	.	CC1=CC2(CO)C(=O)[C@]3(CO3)[C@H]1[C@H]1[C@]2(C)C=C(CO)C(=O)[C@]12CO2	.	.
6	.	9	1	.	.	O=C(NCC1CC1)[C@H]1[C@H](CO)[C@H]2Cn3c(ccc(-c4ccncc4)c3=O)[C@H]2N1Cc1cocn1	.	.
7	3	11	-1	.	.	C[C@@H]1CN([C@@H](C)CO)C(=O)c2cccc(NC(=O)C3CC3)c2O[C@H]1CN(C)C(=O)Nc1ccc2c(c1)OCO2	.	.
8	167*	-2	4	.	.	C[C@@H]1CN([C@@H](C)CO)C(=O)c2cc(C#CCc3ccccc3)cnc2O[C@H]1CN(C)CC1CCCC1	.	i
9	.	0	.	.	.	C[C@H]1CN([C@@H](C)CO)C(=O)c2cc(C#CCc3ccccc3)cnc2O[C@H]1CN(C)CC1CC1	.	.
10	138*	-2	-2	-7	-7	CC(C)C[C@@H](CNCC(=O)[C@H](CC(=O)O)NC(=O)c1[nH]cnc1C(=O)N[C@H](CN)CC(C)C)NC(=O)c1nc[nH]c1C(=O)N[C@@H](C)C(=O)O	1	1
11	135*	7	4	4	-2	CC(C)C[C@@H](CNCC(=O)[C@H](CC(C)C)NC(=O)c1[nH]cnc1C(=O)N[C@@H](C)CN)NC(=O)c1nc[nH]c1C(=O)N[C@@H](C)C(=O)O	1	14
12	166*	5	0	7	-6	CC(C)C[C@@H](CN)NC(=O)c1nc[nH]c1C(=O)N[C@@H](Cc1c[nH]c2ccccc12)C(=O)CNC[C@H](C)NC(=O)c1nc[nH]c1C(=O)N[C@@H](C)C(=O)O	2	-1
13	-11	5	1	3	-3	CC1(C)C(=O)OC(c2ccccc2)C(C)(C)C1=O (stereo not drawn)	-2	.
14	105*	.	.	0	3	CCC1=C(OC(=O)c2ccccc2)C(C)(C)C(c2ccccc2)OC1=O (stereo not drawn)	0	9
15	-12	-1	6	.	.	COCC(=O)Nc1ccc2c(c1)C(=O)N(C)C[C@H](OC)[C@H](C)CN(C(=O)c1ccccn1)[C@@H](C)CO2	.	.
16	410*	21	.	-1	-2	O=C(CSc1nnc2c(n1)[nH]c1ccccc12)OCc1ccccc1	0	1
17	.	1	0	2	5	O=C(O)CSc1nnc2c(n1)[nH]c1ccccc12	-2	.
18	3	-2	6	.	.	C[C@H]1CN([C@@H](C)CO)S(=O)(=O)c2ccc(-c3ccccc3)cc2O[C@H]1CN(C)C(=O)CN(C)C	.	.
19	66*	11	2	.	.	CC(=O)N(C)C[C@@H]1Oc2cc(-c3cccc(C#N)c3)ccc2S(=O)(=O)N([C@H](C)CO)C[C@H]1C	.	i
20	63*	15	2	.	.	CC(=O)N(C)C[C@@H]1Oc2cc(Br)ccc2S(=O)(=O)N([C@@H](C)CO)C[C@@H]1C	.	i
21	35*	6	2	.	.	C[C@H](CO)N1C[C@H](C)[C@H](CN(C)C(=O)CN(C)C)Oc2cc(-c3ccccc3)ccc2S1(=O)=O	.	i
22	166*	-16	5	.	.	COc1cccc(-c2ccc3c(c2)O[C@@H](CN(C)Cc2ccncc2)[C@@H](C)CN([C@H](C)CO)S3(=O)=O)c1	.	i
23	13	12	2	.	.	CC(=O)N(C)C[C@@H]1Oc2cc(-c3cccc(C#N)c3)ccc2S(=O)(=O)N([C@@H](C)CO)C[C@H]1C	.	.
24	-7	3	-1	.	.	COc1cccc(-c2ccc3c(c2)O[C@H](CN(C)Cc2cncnc2)[C@@H](C)CN([C@@H](C)CO)S3(=O)=O)c1	.	.
25	9	5	-2	.	.	Cc1noc(C)c1S(=O)(=O)Nc1ccc2c(c1)C(=O)N([C@H](C)CO)C[C@H](C)[C@@H](CN(C)S(C)(=O)=O)OCCCC[C@H](C)O2	.	.
26	.	-1	7	.	.	O=C(NCC[C@@H]1CC[C@@H](NC(=O)c2cccnc2)[C@H](CO)O1)Nc1ccc(C(F)(F)F)cc1	.	.
27	8	-9	3	.	.	O=C(NCC[C@H]1CC[C@H](NC(=O)C2CCCCC2)[C@@H](CO)O1)Nc1ccc(Cl)cc1	.	.
28	0	-7	-5	.	.	C[C@H]1CN([C@@H](C)CO)S(=O)(=O)c2ccc(-c3cccc(C(=O)N(C)C)c3)cc2O[C@H]1CN(C)C(=O)Nc1ccc(F)cc1	.	.
29	111*	-15	3	.	.	C[C@H]1CN([C@@H](C)CO)S(=O)(=O)c2ccc(-c3cccc(C(=O)N(C)C)c3)cc2O[C@@H]1CN(C)C(=O)Nc1ccc(F)cc1	.	i
30	126*	.	0	-4	-6	O=C(NCc1cccc(Cl)c1)c1ccc(-n2ccnc2)c2ccoc12	-4	-7

Profiles from above.
Entry for `COc1cccc(-c2ccc3c(c2)O[C@H](CN(C)Cc2cncnc2)[C@@H](C)CN([C@@H](C)CO)S3(=O)=O)c1` = Yeast UUG start-1 = -7; GSIS activator = 3; ERp5 block = -1; PDI turbidity = .; NR1D1 modulator = .; SMARCA2 act = .; Yeast UUG start-2 = .
Entry for `O=C(NCC[C@H]1CC[C@H](NC(=O)C2CCCCC2)[C@@H](CO)O1)Nc1ccc(Cl)cc1` = Yeast UUG start-1 = 8; GSIS activator = -9; ERp5 block = 3; PDI turbidity = .; NR1D1 modulator = .; SMARCA2 act = .; Yeast UUG start-2 = .

Continuation:
item	Yeast UUG start-1	GSIS activator	ERp5 block	PDI turbidity	NR1D1 modulator	canonical_smiles	SMARCA2 act	Yeast UUG start-2
31	4	1	4	1	-2	O=C(NCc1cccc(Cl)c1)c1ccc(-n2cncn2)c2ccoc12	-1	.
32	177*	18	-5	9	1	COc1ccc(CNC(=O)c2ccc(-n3ccnc3)c3ccoc23)cc1OC	-1	-3
33	-5	18	3	4	5	COc1ccc(CNC(=O)c2ccc(-n3cncn3)c3ccoc23)cc1OC	-2	.
34	171*	-11	-3	0	-6	O=C(Nc1ccc([N+](=O)[O-])cc1)C(=O)Nc1cccc(C(=O)O)c1	0	-56
35	0	8	3	0	4	COc1ccc(Nc2nc3ccccc3n2C)cc1	3	-13
36	.	5	5	-9	0	CC1(C(O)(C#CC[N+]2(C)CCCCC2)c2ccccc2)CCCC1 (stereo not drawn)	1	.
37	active	-2	5	-1	3	CC1(C#CC[N+]2(C)CCCCC2)CCC2C(O1)c1ccccc1OC2(C)C (stereo not drawn)	-2	-4
38	116*	.	5	.	.	COC(=O)c1c2oc(c1C(=O)OC)C(=O)N[C@@H](Cc1ccccc1)Cn1cc(nn1)CNC(=O)[C@@H](Cc1ccccc1)NC(=O)N[C@@H](CO)CC2	.	i
39	308*	.	.	0	-1	COc1ccc(-c2oc(NC(=O)CCl)c(C#N)c2-c2ccc(OC)cc2)cc1	-6	14

Rewritten with values ahead of the structure: part of the list above.
#	Yeast UUG start-1	GSIS activator	ERp5 block	PDI turbidity	NR1D1 modulator	SMARCA2 act	Yeast UUG start-2	SMILES
31	4	1	4	1	-2	-1	.	O=C(NCc1cccc(Cl)c1)c1ccc(-n2cncn2)c2ccoc12
32	177*	18	-5	9	1	-1	-3	COc1ccc(CNC(=O)c2ccc(-n3ccnc3)c3ccoc23)cc1OC
